Columns and labels:
[1] = molecular target: Muscarinic acetylcholine receptor M2 (Rattus norvegicus, UniProt P10980); assay: In vitro receptor binding against Muscarinic acetylcholine receptor M2 in rat heart was determined using [3H]NMS
[2] = molecular target: Muscarinic acetylcholine receptor M1 (Rattus norvegicus, UniProt P08482); assay: In vitro receptor binding against Muscarinic acetylcholine receptor M1 in rat cerebral cortex was determined using [3H]pirenzepine; format: tissue-based
Summary of the method: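 Rat cortex, heart or submandibular gland homogenates in Na+-Mg2+-HEPES pH 7.4, incubated 45 min at 30 °C with radioligand plus varying cold ligand. Separated by centrifugation, pellets washed and counted, in triplicate. KD from IC50 by nonlinear regression with Cheng–Prusoff correction; Hill slopes by linear regression.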

Protein sequences, listed by entry. Tags and fused reporters are not part of them. Lines headed by an entry give the natural chain unless they say otherwise; changes in a name come on top.
UniProt P10980, whole entry: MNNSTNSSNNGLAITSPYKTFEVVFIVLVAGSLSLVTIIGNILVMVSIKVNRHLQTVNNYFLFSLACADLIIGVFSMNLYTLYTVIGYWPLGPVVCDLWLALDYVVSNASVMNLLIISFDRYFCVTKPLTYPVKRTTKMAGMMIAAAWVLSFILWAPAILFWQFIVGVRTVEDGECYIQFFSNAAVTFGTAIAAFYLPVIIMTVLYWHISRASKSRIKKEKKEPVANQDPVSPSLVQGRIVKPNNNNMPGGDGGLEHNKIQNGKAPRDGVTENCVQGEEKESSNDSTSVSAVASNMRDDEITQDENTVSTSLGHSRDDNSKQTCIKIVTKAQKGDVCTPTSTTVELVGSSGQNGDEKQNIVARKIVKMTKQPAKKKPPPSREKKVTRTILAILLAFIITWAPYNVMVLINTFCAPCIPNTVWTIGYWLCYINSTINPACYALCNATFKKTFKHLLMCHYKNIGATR
UniProt P08482: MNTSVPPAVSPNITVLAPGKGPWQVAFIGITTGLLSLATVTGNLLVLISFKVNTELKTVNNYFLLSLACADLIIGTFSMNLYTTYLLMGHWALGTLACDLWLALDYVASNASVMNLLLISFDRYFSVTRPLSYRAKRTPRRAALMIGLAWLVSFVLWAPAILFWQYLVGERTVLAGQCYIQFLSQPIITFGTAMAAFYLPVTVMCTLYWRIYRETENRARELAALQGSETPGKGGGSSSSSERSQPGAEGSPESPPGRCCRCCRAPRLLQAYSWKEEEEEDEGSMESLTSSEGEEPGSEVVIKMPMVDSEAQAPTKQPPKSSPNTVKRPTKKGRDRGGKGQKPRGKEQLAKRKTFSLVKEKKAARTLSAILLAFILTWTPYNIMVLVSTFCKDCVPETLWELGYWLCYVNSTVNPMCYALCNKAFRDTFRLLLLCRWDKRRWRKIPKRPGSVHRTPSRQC

For CN1[C@@H]2C[C@@H](OC(=O)[C@H](CO)c3ccccc3)C[C@H]1[C@@H]1O[C@@H]12 [SCOPOLAMINE], the Kd [1] was 3 nM.

In the case of C[N+]1(C)[C@@H]2CC[C@H]1C[C@@H](OC(=O)C(CO)c1ccccc1)C2 (some centres not stated) [ATROPINE METHYLBROMIDE], the Kd [2] is reported as 2.5 nM.
